From patent US20090325856A1, “Composition Designed For The Treatment Of Multiple Sclerosis” (GEMAC, priority 2005, published 2009)

System: hematoencephalic barrier
Settings: rats treated with C1; detected with anti-methionine antibodies

Substance: L-Methionine-reduced glutaraldehyde-poly-L-lysine
- passage of the hematoencephalic barrier: passes through the hematoencephalic barrier
